# Columns and labels:
# [1] = system: NSC34 mouse motor neuronal cells
# [2] = system: 1321N1 (human) astrocytic line
substance,measurement,setting,value
3-alpha-hydroxygedinin,Lowest dose with toxicity,[1],10 µM
same,Lowest dose with toxicity,[2],none
same,Lowest dose with toxicity,C6 (rat) astrocytic line,none
